molecular target: NR2B (Rattus norvegicus (Rat), UniProt Q00960); assay: NR2B rat cortical neuron calcium influx assay; conditions: rat cortical neurons, glutamate and glycine stimulated calcium influx, 2 hours compound incubation

The chains behind the UniProt entries cited, without tags or fusion partners. Residues count along the entry.
UniProt Q00960, 27-1482 limits assumed: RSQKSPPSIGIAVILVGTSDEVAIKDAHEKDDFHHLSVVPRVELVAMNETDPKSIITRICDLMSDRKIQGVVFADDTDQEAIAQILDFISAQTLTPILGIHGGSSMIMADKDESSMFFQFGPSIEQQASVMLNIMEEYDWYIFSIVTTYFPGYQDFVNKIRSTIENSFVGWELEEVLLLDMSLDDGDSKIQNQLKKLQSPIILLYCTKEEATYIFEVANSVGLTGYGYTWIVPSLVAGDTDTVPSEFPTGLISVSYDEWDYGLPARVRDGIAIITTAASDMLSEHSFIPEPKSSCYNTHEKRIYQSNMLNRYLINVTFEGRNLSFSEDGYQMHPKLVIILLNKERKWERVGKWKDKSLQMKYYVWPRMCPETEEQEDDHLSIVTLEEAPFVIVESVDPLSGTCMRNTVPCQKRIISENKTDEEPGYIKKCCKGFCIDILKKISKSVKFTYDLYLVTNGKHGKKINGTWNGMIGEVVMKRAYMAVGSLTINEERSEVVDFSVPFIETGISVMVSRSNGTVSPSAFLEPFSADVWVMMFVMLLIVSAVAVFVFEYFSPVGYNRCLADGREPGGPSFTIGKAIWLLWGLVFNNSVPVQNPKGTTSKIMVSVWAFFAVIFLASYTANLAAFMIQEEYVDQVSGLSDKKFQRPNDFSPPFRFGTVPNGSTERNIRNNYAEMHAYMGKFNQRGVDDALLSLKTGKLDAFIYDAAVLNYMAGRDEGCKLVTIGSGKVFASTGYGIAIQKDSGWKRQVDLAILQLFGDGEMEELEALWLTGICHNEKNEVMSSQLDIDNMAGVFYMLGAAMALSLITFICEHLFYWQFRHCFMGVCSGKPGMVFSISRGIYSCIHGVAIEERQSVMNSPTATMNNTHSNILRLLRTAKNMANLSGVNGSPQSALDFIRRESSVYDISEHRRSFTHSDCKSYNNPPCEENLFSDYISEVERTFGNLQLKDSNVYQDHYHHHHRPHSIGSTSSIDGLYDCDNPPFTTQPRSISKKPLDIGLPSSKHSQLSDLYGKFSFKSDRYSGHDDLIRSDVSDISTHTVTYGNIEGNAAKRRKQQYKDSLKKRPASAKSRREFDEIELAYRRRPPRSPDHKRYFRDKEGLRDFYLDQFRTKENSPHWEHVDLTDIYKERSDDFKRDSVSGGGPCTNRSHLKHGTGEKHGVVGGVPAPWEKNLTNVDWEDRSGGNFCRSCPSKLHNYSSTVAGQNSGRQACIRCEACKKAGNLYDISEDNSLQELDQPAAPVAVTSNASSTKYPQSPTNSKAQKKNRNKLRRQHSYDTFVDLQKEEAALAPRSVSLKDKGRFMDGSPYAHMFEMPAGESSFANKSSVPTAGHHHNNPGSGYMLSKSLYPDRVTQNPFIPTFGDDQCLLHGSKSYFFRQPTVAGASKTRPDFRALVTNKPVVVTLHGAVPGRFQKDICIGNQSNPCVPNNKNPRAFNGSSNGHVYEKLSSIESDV

| Structure (SMILES) | IC50 [nM] |
| --- | --- |
| Oc1c(F)cc(C(O)CN2CC3CC(Oc4ccc(F)cc4F)CC3(O)C2)cc1F (centres unmarked) | 150 |
| Oc1ccc(C(O)CN2CC3CC(Oc4ccc(F)cc4F)CC3(O)C2)cc1 (centres unmarked) | 41 |
| Oc1c(F)cc(C(O)CN2C[C@H]3C[C@H](Oc4ccccc4)[C@H](O)[C@@]3(O)C2)cc1F (single isomer, unassigned) | 240 |
| Oc1ccc(C(O)CN2C[C@H]3C[C@H](Oc4ccccc4)[C@H](O)[C@@]3(O)C2)nc1F (single isomer, unassigned) | 140 |
| Oc1ccc(C(O)CN2CC3CC(Oc4ccccc4F)CC3(O)C2)nc1 (single isomer, unassigned) [Example 1A] | 74 |
| Oc1ccc(C(O)CN2CC3CC(Oc4ccccc4F)CC3(O)C2)nc1 (single isomer, unassigned) [Example 1D] | 11 |
| Oc1c(F)cc(C(O)CN2CC3CC(Oc4ccccc4F)C(O)C3(O)C2)cc1F (single isomer, unassigned) [Example 6B] | 83 |
| Oc1c(F)cc(C(O)CN2CC3CC(Oc4ccccc4F)C(O)C3(O)C2)cc1F (single isomer, unassigned) [Example 6C] | 5.5 |
| Oc1c(F)cc(C(O)CN2CC3CC(Oc4ccccc4F)C(O)C3(O)C2)cc1F (single isomer, unassigned) [Example 6D] | 940 |
| Oc1ccc(C(O)CN2CC3CC(Oc4ccccc4)CC3(O)C2)nc1 (single isomer, unassigned) [Example 7A] | 40 |
| Oc1ccc(C(O)CN2CC3CC(Oc4ccccc4)CC3(O)C2)nc1 (single isomer, unassigned) [Example 7B] | 1600 |
| Oc1c(F)cc(C(O)CN2CC3CC(Oc4ccccc4F)CC3(O)C2)cc1F (single isomer, unassigned) [Example 8A] | 140 |
| Oc1c(F)cc(C(O)CN2CC3CC(Oc4ccccc4F)CC3(O)C2)cc1F (single isomer, unassigned) [Example 8C] | 8.1 |
| Oc1ccc(C(O)CN2CC3CC(Oc4ccccc4)CC3(O)C2)nc1F (single isomer, unassigned) [Example 9A] | 590 |
| Oc1ccc(C(O)CN2CC3CC(Oc4ccccc4)CC3(O)C2)nc1F (single isomer, unassigned) [Example 9C] | 13 |
| Oc1ccc(C(O)CN2C[C@H]3C[C@H](Oc4ccccc4)C[C@@]3(O)C2)nc1Cl (single isomer, unassigned) [Example 11A] | 3.5 |
| Oc1ccc(C(O)CN2C[C@H]3C[C@H](Oc4ccccc4)C[C@@]3(O)C2)nc1Cl (single isomer, unassigned) [Example 11B] | 14 |
| Oc1c(F)cc(CCN2CC3CC(Oc4ccccc4F)CC3(O)C2)cc1F (single isomer, unassigned) [Example 14B] | 210 |
| Oc1c(F)cc(CCN2CC3CC(Oc4ccc(F)cc4F)CC3(O)C2)cc1F (single isomer, unassigned) [Example 15A] | 19 |
| Oc1c(F)cc(CCN2CC3CC(Oc4ccccc4)CC3(O)C2)cc1F (single isomer, unassigned) [Example 16B] | 530 |
| Oc1ccc(CCN2CC3CC(Oc4ncccc4F)CC3(O)C2)cc1 (single isomer, unassigned) [Example 17A] | 53 |
| Oc1ccc(CCN2CC3CC(Oc4ncccc4F)CC3(O)C2)cc1 (single isomer, unassigned) [Example 17B] | 1200 |
| Oc1ccc(CCN2CC3CC(Oc4cccnc4F)CC3(O)C2)cc1 (single isomer, unassigned) [Example 18B] | 4000 |

Results, then the molecule that gave them:

| IC50 [nM] | Structure (SMILES) |
| --- | --- |
| > 10000 | Oc1ccc(C(O)CN2C[C@@H]3C[C@@H](Oc4ccccc4)[C@@H](O)[C@]3(O)C2)nc1F (single isomer, unassigned) |
| 1500 | Oc1c(F)cc(C(O)CN2CC3CC(Oc4ccccc4F)C(O)C3(O)C2)cc1F (single isomer, unassigned) [Example 6A] |
| 3600 | Oc1c(F)cc(C(O)CN2CC3CC(Oc4ccccc4F)CC3(O)C2)cc1F (single isomer, unassigned) [Example 8B] |
| 2.8 | Oc1c(F)cc(C(O)CN2CC3CC(Oc4ccccc4F)CC3(O)C2)cc1F (single isomer, unassigned) [Example 8D] |
| > 10000 | Oc1ccc(C(O)CN2CC3CC(Oc4ccccc4)CC3(O)C2)nc1F (single isomer, unassigned) [Example 9B] |
| 8.9 | Oc1ccc(C(O)CN2CC3CC(Oc4ccccc4)CC3(O)C2)nc1F (single isomer, unassigned) [Example 9D] |
| 150 | Oc1c(F)cc(C(O)CN2CC3CC(Oc4ccccc4)CC3(O)C2)cc1F (single isomer, unassigned) [Example 10A] |
| 1700 | Oc1c(F)cc(C(O)CN2CC3CC(Oc4ccccc4)CC3(O)C2)cc1F (single isomer, unassigned) [Example 10B] |
| 9 | Oc1c(F)cc(CCN2CC3CC(Oc4ccccc4F)CC3(O)C2)cc1F (single isomer, unassigned) [Example 14A] |
| 1400 | Oc1c(F)cc(CCN2CC3CC(Oc4ccc(F)cc4F)CC3(O)C2)cc1F (single isomer, unassigned) [Example 15B] |
| 41 | Oc1c(F)cc(CCN2CC3CC(Oc4ccccc4)CC3(O)C2)cc1F (single isomer, unassigned) [Example 16A] |
| 570 | Oc1ccc(CCN2CC3CC(Oc4cccnc4F)CC3(O)C2)cc1 (single isomer, unassigned) [Example 18A] |

Source: patent US20240199576A1, “NOVEL CYCLOPENTA[C]PYRROL NEGATIVE ALLOSTERIC MODULATORS OF NR2B” (Novartis AG, priority 2021, published 2024)
